Only a part is listed here, and it is no random draw. Inconclusive results are not listed. The source made the active and inactive calls. The rule behind the calls is not given here.
Target: Catechol O-methyltransferase (Homo sapiens) (UniProt P21964)
Test: Primary Screen for Target Class Profiling of Small Molecule Inhibitors of Methyltransferases
Settings: purified enzyme, MTase-Glo SAH luminescence; at 40 µM; hits give low values
Source text: PI: Matthew D. Hall Ph.D. and Quinlin M. Hanson Ph.D.
National Center for Advancing Translational Sciences (NCATS)
National Institute of Health (NIH), Rockville, MD
Target class profiling (TCP) is a chemical biology approach amenable to investigating understudied biological targets. TCP is achieved by developing a generalizable assay platform and applying it to screen a curated set of compound libraries against representative members of a target class. Small molecule methyltransferases (SMMTase) are a subclass of methyltransferase that act on metabolites to modulate signaling pathways, metabolize xenobiotics, or balance the available methyl pool. We screened four curated libraries totaling 27,574 unique compounds against the SMMTases nicotinamide N-methyltransferase (NNMT), phenylethanolamine N-methyltransferase (PNMT), histamine N-methyltransferase (HNMT), glycine N-methyltransferase (GNMT), catechol O-methyltransferase (COMT), and guanidinoacetate N-methyltransferase (GAMT). The data generated by this TCP can be leveraged for informed tool molecule development. For example, in the associated publication we identified a chemotype of HNMT-selective inhibitors. Additionally, we identified a putative SMMTase-selective inhibitor with potential as a tool molecule for studying broader methyltransferase biology.
High-through put screening assays were developed at the National Center for Advancing Translational Science (NCATS) for the enzymes NNMT, PNMT, HNMT, GNMT, COMT, and GAMT. Enzymatic activity was measured as a function of SAM cofactor conversion using the MTase Glo kit (Promega) for all enzymes. All assays were performed in 1536-well format with substrates and SAM concentrations at KM values. Enzyme concentration and assay timing were optimized for 10-20% SAM conversion. Initial screening of 27,574 compounds was done as single-point assays using the highest compound concentration (40 uM). […] These compounds were replated in 11-point dose response and assayed against NNMT, PNMT, HNMT, GNMT, COMT, GAMT, and a counter-assay. The IC50 and efficacy (maximal response) values were determined for each dose-response curve. These values are also accounted for in the area under the curve (AUC) values.
PROTOCOL TABLE (as described by Inglese J, Shamu CE and Guy RK. 2007)
SEQUENCE No. (e.g., 1, 2, 3, etc.); […] (e.g., Cells, Incubation, Reagent, etc.); VALUE; DESCRIPTION.
1; Reagent; 2 uL; SMMTase Enzyme (2x) in reaction buffer, columns 1- 48.
2; Reagent; 1 uL; SAM (4x) in reaction buffer, columns 1-48.
3; Controls; 23 nL; DMSO in column 4; sinefungin in DMSO (0 uM - 40 uM) in 7-point 1:2 dilution series (n = 2) in column 2.
4; Compounds; 23 nL; Columns 5-48.
5; Reagent; 1 uL; Substrate (4x) in reaction buffer, columns 2-48.
6; Time; 20-30 min; Incubation.
7; Reagent; 1 uL; MTase-Glo reagent (5X), columns 1-48.
8; Time; 30 min; Incubation.
9; Reagent; 5 uL; MTase-Glo Detection reagent, columns 1-48.
10; Time; 30 min; Incubation, luminescence evolution.
11; Detection; Luminescence; ViewLux uHTS Microplate Imager (PerkinElmer).
NOTES (numbers refer to Sequence numbers above)
1, 2, 5. White Medium Binding Greiner 1536-well plates (Cat #789175-F, Greiner Bio-One, Monroe, NC); Reaction buffer: 50 mM Tris, pH 8.0, 3 mM MgCl2, 1 mM EDTA, 50 mM NaCl, 1 mM DTT, and 0.1 mg/mL BSA. Evaporation was prevented by covering assay plates with metal lids containing holes to allow gas diffusion.
1. Six SMMTase were profiled: HNMT, GNMT, PNMT, COMT, NNMT, GAMT
5. The corresponding substrate was used for each enzyme: HNMT - 5.3 uM Histamine; GNMT - >500 uM Glycine; PNMT - 16.2 uM Norephinephrine; COMT - 13.7 uM Norephinephrine; NNMT - 3.8 uM Nicotinamide; GAMT - 2.5 uM Guanidinoacetate.6, 8, 10. Room temperature
6. Final reaction conditions: 10 nM COMT, 5 uM SAM, 15 uM norepinephrine, 50 mM Tris, pH 8.0, 3 mM MgCl2, 1 mM EDTA, 50 mM NaCl, 1 mM DTT, and 0.1 mg/mL BSA; refer to tables 2 and S1 for specific timing.
8. […]
% is set by controls: 0 for no effect and ±100 for the full control effect.

| SMILES | activity change, negative = inhibition |
| --- | --- |
| CN(C(=O)Cc1ccc(Cl)c(Cl)c1)[C@@H]1CC[C@]2(CCCO2)C[C@H]1N1CCCC1 | inactive: 5.69% |
| CN(C(=O)Cc1ccccc1)[C@@H]1CC[C@]2(CCCO2)C[C@H]1N1CCCC1 | inactive: 1.02% |
| CCn1c(=O)n([C@@H]2CCN(CC3CCCCCCC3)C[C@H]2CO)c2ccccc21 | inactive: -0.966% |
| O=C(O[C@H]1CN2CCC1CC2)C1NCc2ccccc2[C@@H]1c1ccccc1 (stereo partly specified) | inactive: -9.17% |
| N[C@@H](Cc1ccc([N+]([O-])(CCCl)CCCl)cc1)C(=O)O | active: -60.1% |
| CN(C)C1(c2ccccc2)CCC2(CC1)OCCc1c2[nH]c2ccc(F)cc12 (stereo unspecified) | inactive: 1.45% |

Source: PubChem BioAssay AID1745853 (National Center for Advancing Translational Sciences (NCATS), 2022)
